These are literature values, as cited in PMC8896928, “Preparation, Characterization, and Preliminary Imaging Study of [^188Re]Re-Ibandronate as a Novel Theranostic Radiopharmaceutical for Bone Metastasis” (Contrast Media & Molecular Imaging, 2022).

The conditions of series [1]: human serum, 24 h; cited from earlier work.
For series [2] the following is noted: Swiss mice, cited from earlier work.

For [^188Re]Re-risedronate, the “Stability (RCP)” value in series [1] is on record as 73 ± 1.21%.
Take [^188Re]Re-zoledronate [[^188Re]Re-ZNA]: in series [2] (1 h), the “Bone uptake (maximum)” value was 1.08 ± 0.14 %ID/g. In addition, the “Bone uptake (lowest value)” value in series [2] (24 h) was 0.36 ± 0.06 %ID/g. In addition, in series [1], the “Stability (RCP)” value was 91.53 ± 1.39%.
